In patent US20030044861A1, “Method for diagnosing neoplasia” (priority 1998, published 2003):

Molecular target: T1, PDE peak A (PDE5) from SW-480 cells (Homo sapiens, UniProt O76074)
T1 construct: SW-480 cells are collected and homogenized; The homogenate is centrifuged, and the supernatant is loaded onto a DEAE-Trisacryl M column; endogenous in cells; host or cells: SW-480 human colon carcinoma cells, DEAE-Trisacryl M fraction peak A
Assay: cGMP hydrolysis by PDE peak A
Type: biochemical

Compound `O=C([O-])C1CCN(c2nc(NCc3ccc4c(c3)OCO4)c3cc(Cl)ccc3n2)CC1.[Na+]` [Compound E4021] has an IC50 of 3 nM.
